{"source": "paper PMC5641599", "about": "(Molecular Metabolism, 2017)", "origin": "cited, not measured here", "key": {"MC4R variants [1]": {"molecular_target": "MC4R variants (Homo sapiens, UniProt P32245, V103I)", "settings": "MC4R V103I; ref Xiang Z, Biochemistry, 2006; cited from earlier work"}, "MC4R variants [2]": {"molecular_target": "MC4R variants (Homo sapiens, UniProt P32245, D37G)", "settings": "MC4R D37G; ref Hughes DA, Hum Genet, 2009; cited from earlier work"}, "MC4R variants [3]": {"molecular_target": "MC4R variants (Homo sapiens, UniProt P32245, S191T)", "settings": "MC4R S191T; COS-7 cell line; ref Hughes DA, Hum Genet, 2009; cited from earlier work"}, "MC4R variants [4]": {"molecular_target": "MC4R variants (Homo sapiens, UniProt P32245, I317V)", "settings": "MC4R I317V; ref Xiang Z, Biochemistry, 2010; cited from earlier work"}, "MC4R variants [5]": {"molecular_target": "MC4R variants (Homo sapiens, UniProt P32245, N62S)", "settings": "MC4R N62S; ref Xiang Z, Biochemistry, 2006; cited from earlier work"}, "MC4R variants [6]": {"molecular_target": "MC4R variants (Homo sapiens, UniProt P32245, H158R)", "settings": "MC4R H158R; COS-7 cell line; ref Hinney A, J Clin Endocrinol Metab, 2006; cited from earlier work"}, "MC4R variants [7]": {"molecular_target": "MC4R variants (Homo sapiens, UniProt P32245, D146N)", "settings": "MC4R D146N; ref Wang ZQ, Biochim Biophys Acta, 2011; cited from earlier work"}, "MC4R variants [8]": {"molecular_target": "MC4R variants (Homo sapiens, UniProt P32245, Y157S)", "settings": "MC4R Y157S; ref Xiang Z, Biochemistry, 2010; cited from earlier work"}, "MC4R variants [9]": {"molecular_target": "MC4R variants (Homo sapiens, UniProt P32245, I195S)", "settings": "MC4R I195S; ref Wang ZQ, Biochim Biophys Acta, 2011; cited from earlier work"}, "MC4R variants [10]": {"molecular_target": "MC4R variants (Homo sapiens, UniProt P32245, F202L)", "settings": "MC4R F202L, cited from earlier work"}, "MC4R variants [11]": {"molecular_target": "MC4R variants (Homo sapiens, UniProt P32245, I301T)", "settings": "MC4R I301T; ref Xiang Z, Biochemistry, 2006; cited from earlier work"}, "MC4R variants [12]": {"molecular_target": "MC4R variants (Homo sapiens, UniProt P32245, R18C)", "settings": "MC4R R18C; ref Xiang Z, Biochemistry, 2006; cited from earlier work"}, "MC4R variants [13]": {"molecular_target": "MC4R variants (Homo sapiens, UniProt P32245, Y332H)", "settings": "MC4R Y332H; ref Wang ZQ, Biochim Biophys Acta, 2011; cited from earlier work"}, "MC4R variants [14]": {"molecular_target": "MC4R variants (Homo sapiens, UniProt P32245, Y332C)", "settings": "MC4R Y332C; ref Wang ZQ, Biochim Biophys Acta, 2011; cited from earlier work"}, "MC4R variants [15]": {"molecular_target": "MC4R variants (Homo sapiens, UniProt P32245, P230L)", "settings": "MC4R P230L; ref Xiang Z, Biochemistry, 2006; cited from earlier work"}, "MC4R variants [16]": {"molecular_target": "MC4R variants (Homo sapiens, UniProt P32245, C40Y)", "settings": "MC4R C40Y; COS-7 cell line; ref Hughes DA, Hum Genet, 2009; cited from earlier work"}, "MC4R variants [17]": {"molecular_target": "MC4R variants (Homo sapiens, UniProt P32245, R18L)", "settings": "MC4R R18L; ref Xiang Z, Biochemistry, 2010; cited from earlier work"}, "MC4R variants [18]": {"molecular_target": "MC4R variants (Homo sapiens, UniProt P32245, N274S)", "settings": "MC4R N274S; ref Xiang Z, Biochemistry, 2006; cited from earlier work"}, "MC4R variants [19]": {"molecular_target": "MC4R variants (Homo sapiens, UniProt P32245, N97D)", "settings": "MC4R N97D; ref Xiang Z, Biochemistry, 2006; cited from earlier work"}, "MC4R variants [20]": {"molecular_target": "MC4R variants (Homo sapiens, UniProt P32245, V166I)", "settings": "MC4R V166I, COS-7 cell line, cited from earlier work"}, "MC4R variants [21]": {"molecular_target": "MC4R variants (Homo sapiens, UniProt P32245, I251L)", "settings": "MC4R I251L; ref Xiang Z, Biochemistry, 2006; cited from earlier work"}, "MC4R variants [22]": {"molecular_target": "MC4R variants (Homo sapiens, UniProt P32245, G231S)", "settings": "MC4R G231S; ref Xiang Z, Biochemistry, 2010; cited from earlier work"}, "MC4R variants [23]": {"molecular_target": "MC4R variants (Homo sapiens, UniProt P32245, T150I)", "settings": "MC4R T150I; ref Xiang Z, Biochemistry, 2006; cited from earlier work"}, "MC4R variants [24]": {"molecular_target": "MC4R variants (Homo sapiens, UniProt P32245, E61K)", "settings": "MC4R E61K; ref Xiang Z, Biochemistry, 2010; cited from earlier work"}, "MC4R variants [25]": {"molecular_target": "MC4R variants (Homo sapiens, UniProt P32245, R236H)", "settings": "MC4R R236H; COS-7 cell line; ref Hinney A, J Clin Endocrinol Metab, 2006; cited from earlier work"}, "MC4R variants [26]": {"molecular_target": "MC4R variants (Homo sapiens, UniProt P32245, R305S)", "settings": "MC4R R305S; ref Wang ZQ, Biochim Biophys Acta, 2011; cited from earlier work"}, "MC4R variants [27]": {"molecular_target": "MC4R variants (Homo sapiens, UniProt P32245, L250Q)", "settings": "MC4R L250Q; ref Xiang Z, Biochemistry, 2006; cited from earlier work"}}, "note": "Like-named read-outs stand apart in the source and are kept apart here.", "data": [{"substance": "β-MSH", "values": [{"measurement": "cAMP EC50 (WT fold)", "setting": "MC4R variants [1]", "value": 0.14, "unit": "WT fold"}, {"measurement": "cAMP EC50 - Ligand no.2", "setting": "MC4R variants [2]", "value": 1.50, "unit": "WT fold"}, {"measurement": "cAMP EC50 - Ligand no.2 (WT fold)", "setting": "MC4R variants [3]", "value": 1.00, "unit": "WT fold"}, {"measurement": "cAMP EC50 (WT fold)", "setting": "MC4R variants [4]", "value": 2.00, "unit": "WT fold"}, {"measurement": "cAMP EC50 (WT fold)", "setting": "MC4R variants [5]", "value": 350.00, "unit": "WT fold"}, {"measurement": "cAMP EC50 - Ligand no.2 (WT fold)", "setting": "MC4R variants [6]", "value": 0.11, "unit": "WT fold"}, {"measurement": "cAMP EC50 - Ligand no.2 (WT fold)", "setting": "MC4R variants [7]", "value": 0.15, "unit": "WT fold"}, {"measurement": "cAMP EC50 - Ligand no.2 (WT fold)", "setting": "MC4R variants [8]", "value": 560.00, "unit": "WT fold"}, {"measurement": "cAMP EC50 - Ligand no.2 (WT fold)", "setting": "MC4R variants [9]", "value": 1.32, "unit": "WT fold"}, {"measurement": "cAMP EC50 - Ligand no.2 (WT fold)", "setting": "MC4R variants [10]; COS-7 cell line, ref Hughes DA, Hum Genet, 2009", "value": 1.60, "unit": "WT fold"}, {"measurement": "cAMP EC50 - Ligand no.2 (WT fold)", "setting": "MC4R variants [10]; ref Xiang Z, Biochemistry, 2010", "value": 2.83, "unit": "WT fold"}, {"measurement": "cAMP EC50 (WT fold)", "setting": "MC4R variants [11]", "value": 5.81, "unit": "WT fold"}, {"measurement": "cAMP EC50 - Ligand no.2", "setting": "MC4R variants [12]", "value": 0.76, "unit": "WT fold"}, {"measurement": "cAMP EC50 (WT fold)", "setting": "MC4R variants [13]", "value": 0.78, "unit": "WT fold"}, {"measurement": "cAMP EC50 (WT fold)", "setting": "MC4R variants [14]", "value": 0.48, "unit": "WT fold"}, {"measurement": "cAMP EC50 - Ligand no.2 (WT fold)", "setting": "MC4R variants [15]", "value": 1.48, "unit": "WT fold"}, {"measurement": "cAMP EC50 - Ligand no.2", "setting": "MC4R variants [16]", "value": 1.90, "unit": "WT fold"}, {"measurement": "cAMP EC50 - Ligand no.2", "setting": "MC4R variants [17]", "value": 0.70, "unit": "WT fold"}, {"measurement": "cAMP EC50 (WT fold)", "setting": "MC4R variants [18]", "value": 0.86, "unit": "WT fold"}, {"measurement": "cAMP EC50 (WT fold)", "setting": "MC4R variants [19]", "value": 1571.43, "unit": "WT fold"}, {"measurement": "cAMP EC50 - Ligand no.2 (WT fold)", "setting": "MC4R variants [20]; ref Hinney A, J Clin Endocrinol Metab, 2006", "value": 1.81, "unit": "WT fold"}, {"measurement": "cAMP EC50 - Ligand no.2 (WT fold)", "setting": "MC4R variants [20]; ref Hughes DA, Hum Genet, 2009", "value": 2.90, "unit": "WT fold"}, {"measurement": "cAMP EC50 - Ligand no.2 (WT fold)", "setting": "MC4R variants [21]", "value": 1.00, "unit": "WT fold"}, {"measurement": "cAMP EC50 - Ligand no.2 (WT fold)", "setting": "MC4R variants [22]", "value": 1.37, "unit": "WT fold"}, {"measurement": "cAMP EC50 - Ligand no.2 (WT fold)", "setting": "MC4R variants [23]", "value": 15.55, "unit": "WT fold"}, {"measurement": "cAMP EC50 (WT fold)", "setting": "MC4R variants [24]", "value": 145.67, "unit": "WT fold"}, {"measurement": "cAMP EC50 - Ligand no.2 (WT fold)", "setting": "MC4R variants [25]", "value": 1.13, "unit": "WT fold"}, {"measurement": "cAMP EC50 (WT fold)", "setting": "MC4R variants [26]", "value": 2.14, "unit": "WT fold"}, {"measurement": "cAMP EC50 - Ligand no.2 (WT fold)", "setting": "MC4R variants [27]", "value": 8.45, "unit": "WT fold"}]}]}
